Columns and labels:
[1] = test system: mouse; details: oral toxicity; cited from earlier work
[2] = test system: cell growth; details: read-out: IC50 value; 24 h, 37° C.; cytotoxicity
[3] = Methylating reaction with methylcobalamin under exposure to light and/or heating, speciation by HPLC-ICP-MS; details: TMAO as starting material, no GSH (test numbers 82-100 even), tris HCl buffer pH 8, 2 hours

Question: With arsenocholine as the substance, how does the LD50 [1] read?
Answer: 6,000 mg/kg

Question: For monomethyl arsonic acid, which IC50 [2] is on record?
Answer: > 6 mM

Question: What about the LD50 [1] of the same substance?
Answer: 1,800 mg/kg

Question: For trimethylarsineoxide, which IC50 [2] is on record?
Answer: > 6 mM

Question: And the “stability in the reaction conditions (degradation into iAs (III), iAs(V), MMA or DMA)” value [3]?
Answer: no degradation

Question: And the LD50 [1]?
Answer: 10,600 mg/kg
